Data taken from ChEMBL document CHEMBL1139476, “Radioiodinated flavones for in vivo imaging of beta-amyloid plaques in the brain” (J Med Chem, 2005).

Amino acid sequences for entries named in this document (tags omitted).
UniProt P05067, whole entry: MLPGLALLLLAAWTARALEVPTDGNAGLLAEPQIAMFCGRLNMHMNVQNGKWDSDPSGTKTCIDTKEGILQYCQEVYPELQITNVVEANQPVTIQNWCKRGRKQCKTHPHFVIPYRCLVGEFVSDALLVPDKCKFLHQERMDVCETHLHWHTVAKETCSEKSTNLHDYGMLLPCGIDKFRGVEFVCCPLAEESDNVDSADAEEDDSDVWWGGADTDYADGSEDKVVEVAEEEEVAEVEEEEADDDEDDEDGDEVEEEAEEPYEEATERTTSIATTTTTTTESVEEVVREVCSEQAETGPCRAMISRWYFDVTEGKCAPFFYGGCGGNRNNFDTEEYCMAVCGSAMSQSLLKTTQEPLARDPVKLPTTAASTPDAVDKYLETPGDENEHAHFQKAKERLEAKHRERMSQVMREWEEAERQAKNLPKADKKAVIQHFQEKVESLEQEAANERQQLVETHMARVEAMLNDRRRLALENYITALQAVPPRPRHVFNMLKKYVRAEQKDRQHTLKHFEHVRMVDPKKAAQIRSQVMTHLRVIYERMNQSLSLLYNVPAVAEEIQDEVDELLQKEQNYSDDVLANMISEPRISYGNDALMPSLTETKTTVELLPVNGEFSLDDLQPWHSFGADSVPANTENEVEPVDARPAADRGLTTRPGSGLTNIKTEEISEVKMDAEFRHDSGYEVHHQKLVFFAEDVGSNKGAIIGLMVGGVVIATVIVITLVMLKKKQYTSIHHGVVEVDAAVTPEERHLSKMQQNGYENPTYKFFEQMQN

Key:
[1] = molecular target: T1, Amyloid-beta precursor protein (Homo sapiens, UniProt P05067); test: Displacement of [125I]6-iodo-4'-dimethyaminofl avone from beta amyloid (1-42) protein aggregates
Outline: (§1)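 Aβ peptide (0.5 mg/mL) aggregated 36-42 h at 37 °C with shaking in pH 7.4 buffer of 10 mM sodium phosphate, 1 mM EDTA. Aggregates incubated 3 h at room temperature in 10% ethanol with test compound (8 pM to 12.5 μM) and [125I]11 (50 μL of 0.02 nM); filtered on GF/B, γ counted. IC50 from three independent experiments; Ki by Cheng-Prusoff using Kd from Scatchard saturation.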

[2] = molecular target: T1, Amyloid-beta precursor protein; test: Displacement of [125I]6-iodo-4'-dimethyaminofl avone from beta amyloid (1-40) protein aggregates; outline: as §1

## Cc1ccc2c(c1)sc(-c1ccc(N(C)C)cc1)[n+]2C [THIOFLAVIN T]
[1]
  Ki: > 1000 nM
[2]
  Ki: > 1000 nM
